One data set has as its system human hepatocytes. Details: method as in Thompson et al. 2012. The note with it: ref Thompson et al. 2012; cited from earlier work.
In the next data set the test system is human liver microtissues. As to the kind of experiment: LPS-sensitization assay in liver microtissues.

On to `CC(C)Cc1ccc(C(C)C(=O)O)cc1` (centres unmarked) [ibuprofen], for which, in the data set on human hepatocytes, the “CVB of marketed drugs without high risk of hepatotoxicity” value is listed as “elevated CVB”.
Take `N[C@@H]1[C@H]2CN(c3nc4c(cc3F)c(=O)c(C(=O)O)cn4-c3ccc(F)cc3F)C[C@@H]12` [trovafloxacin, reference compound]: the “sensitization of liver microtissues by LPS (innate immune activation)” value with human liver microtissues is on record as “LPS sensitized liver microtissues”.

(Values after paper PMC11939078, “TAK-994 mechanistic investigation into drug-induced liver injury” (Toxicological Sciences, 2025).)
